ChEMBL document CHEMBL1149217, “3-trifluoromethyl-4-nitro-5-arylpyrazoles are novel K(ATP) channel agonists” (Bioorg Med Chem Lett, 2004)

The chains behind the UniProt entries cited, without tags or fusion partners. Where a name states a change or a piece, a line headed by the entry shows the natural chain unless it says otherwise.
UniProt Q14654: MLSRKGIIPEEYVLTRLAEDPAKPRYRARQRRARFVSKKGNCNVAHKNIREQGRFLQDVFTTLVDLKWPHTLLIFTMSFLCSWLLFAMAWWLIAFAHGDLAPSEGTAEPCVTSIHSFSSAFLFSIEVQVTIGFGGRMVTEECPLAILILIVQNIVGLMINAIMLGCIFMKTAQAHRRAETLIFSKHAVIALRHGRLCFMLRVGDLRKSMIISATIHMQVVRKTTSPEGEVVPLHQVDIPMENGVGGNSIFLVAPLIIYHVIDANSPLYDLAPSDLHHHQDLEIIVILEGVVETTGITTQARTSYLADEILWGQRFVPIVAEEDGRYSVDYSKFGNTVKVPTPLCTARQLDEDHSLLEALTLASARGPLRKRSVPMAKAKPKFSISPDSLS
UniProt Q09428: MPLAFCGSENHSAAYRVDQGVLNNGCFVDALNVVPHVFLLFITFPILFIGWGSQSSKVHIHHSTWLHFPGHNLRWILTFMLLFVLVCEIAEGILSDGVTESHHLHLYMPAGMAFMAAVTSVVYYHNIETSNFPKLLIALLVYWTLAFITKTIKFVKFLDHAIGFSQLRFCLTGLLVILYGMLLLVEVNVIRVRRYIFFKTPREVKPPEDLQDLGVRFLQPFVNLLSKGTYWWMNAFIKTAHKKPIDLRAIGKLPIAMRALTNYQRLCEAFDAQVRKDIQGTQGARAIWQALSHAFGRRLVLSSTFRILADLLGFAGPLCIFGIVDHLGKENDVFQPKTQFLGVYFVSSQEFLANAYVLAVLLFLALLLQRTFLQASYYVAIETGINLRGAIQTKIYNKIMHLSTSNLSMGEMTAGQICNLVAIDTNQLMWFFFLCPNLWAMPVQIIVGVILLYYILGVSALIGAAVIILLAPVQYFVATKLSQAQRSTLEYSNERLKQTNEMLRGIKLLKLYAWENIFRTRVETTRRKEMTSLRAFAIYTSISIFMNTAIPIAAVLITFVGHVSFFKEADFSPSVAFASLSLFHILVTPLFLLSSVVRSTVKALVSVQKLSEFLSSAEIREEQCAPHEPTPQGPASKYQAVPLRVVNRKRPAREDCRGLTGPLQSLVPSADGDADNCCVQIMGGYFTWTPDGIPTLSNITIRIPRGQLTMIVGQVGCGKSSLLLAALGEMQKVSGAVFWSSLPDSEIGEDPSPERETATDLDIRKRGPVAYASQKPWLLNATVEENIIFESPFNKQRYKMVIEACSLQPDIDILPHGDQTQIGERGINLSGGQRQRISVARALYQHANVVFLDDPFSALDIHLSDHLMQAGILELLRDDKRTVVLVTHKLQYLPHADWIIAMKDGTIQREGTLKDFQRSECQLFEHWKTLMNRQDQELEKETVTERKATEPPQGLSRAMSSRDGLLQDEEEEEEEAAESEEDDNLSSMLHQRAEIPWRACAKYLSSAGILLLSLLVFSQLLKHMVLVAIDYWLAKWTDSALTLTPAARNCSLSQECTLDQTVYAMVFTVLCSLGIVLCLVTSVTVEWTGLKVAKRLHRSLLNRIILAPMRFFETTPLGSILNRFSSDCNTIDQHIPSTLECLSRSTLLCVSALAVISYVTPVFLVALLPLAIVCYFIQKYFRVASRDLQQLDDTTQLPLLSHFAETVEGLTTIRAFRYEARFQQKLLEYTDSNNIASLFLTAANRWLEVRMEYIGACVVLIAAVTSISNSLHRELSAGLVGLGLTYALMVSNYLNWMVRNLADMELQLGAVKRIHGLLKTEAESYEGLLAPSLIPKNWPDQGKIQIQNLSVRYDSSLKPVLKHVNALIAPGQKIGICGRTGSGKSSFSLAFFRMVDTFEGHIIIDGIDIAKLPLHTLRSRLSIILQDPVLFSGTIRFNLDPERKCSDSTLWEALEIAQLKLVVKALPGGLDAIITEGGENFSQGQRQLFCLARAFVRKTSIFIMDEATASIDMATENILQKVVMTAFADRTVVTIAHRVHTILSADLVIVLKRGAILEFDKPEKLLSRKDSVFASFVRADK

Target: Sulfonylurea receptor 1, Kir6.2 (Homo sapiens) (UniProt Q14654+Q09428)
Experiment: Percent maximal agonist response of human KATP (SUR1/Kir6.2) channel expressed in Xenopus oocytes
Assay type: functional, cell-based
Settings: Oocyte
Method in brief: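 ATP-sensitive K+ currents were recorded by excised-patch clamp from inside-out macropatches pulled from Xenopus oocytes expressing human SUR1/Kir6.2. Compounds were tested across a dose range to give dose–response curves. […] Values are means of 3-6 experiments.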

With `O=[N+]([O-])c1ccc(-c2[nH]nc(C(F)(F)F)c2[N+](=O)[O-])c([N+](=O)[O-])c1` the Max response was 122%.
